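How tested: cells in 96-well plates exposed to compound for 48 hours at five concentrations. GI50 = concentration required for 50% inhibition of growth. TGI: total growth inhibition.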
Experiments:
Experiment in all cases: inhibition of tumour cell growth, NCI panel, 48 h
[1] = tested on: A549 NSCLC
[2] = tested on: NCI-H460 lung
[3] = tested on: DMS 114 small cell lung
[4] = tested on: OVCAR-3 ovarian
[5] = tested on: NCI-H322M lung
[6] = tested on: DMS 273 small cell lung
[7] = tested on: SF-295 CNS
[8] = tested on: SNB-78 CNS
[9] = tested on: CAKI-1 renal
[10] = tested on: HOP-92 NSCLC
[11] = tested on: SNB-19 CNS
[12] = tested on: SK-OV-3 ovarian
[13] = tested on: SK-MEL-2 melanoma
[14] = tested on: RPMI-8226 leukemia
[15] = tested on: KM20L2 colon
[16] = tested on: NCI-H522 lung
[17] = tested on: U251 CNS
[18] = tested on: HT29 colon
[19] = tested on: ACHN renal
[20] = tested on: UO-31 renal
[21] = tested on: HCT-116 colon
[22] = tested on: CCRF-CEM leukemia
[23] = tested on: A498 renal
[24] = tested on: HOP-62 NSCLC
[25] = tested on: HCT-15 colon
[26] = tested on: HCC-2998 colon
[27] = tested on: DLD-1 colon
[28] = tested on: MALME-3M melanoma
[29] = tested on: SW-620 colon
[30] = tested on: MOLT-4 leukemia
[31] = tested on: XF 498 CNS
[32] = tested on: M19-MEL melanoma
[33] = tested on: OVCAR-4 ovarian
[34] = tested on: EKVX NSCLC
[35] = tested on: SF-539 CNS
[36] = tested on: NCI-H226 lung
[37] = tested on: NCI-H23 lung
[38] = tested on: UACC-257 melanoma
[39] = tested on: UACC-62 melanoma
[40] = tested on: OVCAR-5 ovarian
[41] = tested on: 786-0 renal
[42] = tested on: HOP-18 NSCLC
[43] = tested on: SF-268 CNS
[44] = tested on: IGROV1 ovarian
[45] = tested on: RXF-631 renal
[46] = tested on: LXFL 529 NSCLC
[47] = tested on: LOX IMVI melanoma
[48] = tested on: SNB-75 CNS
[49] = tested on: COLO 205 colon
[50] = tested on: OVCAR-8 ovarian
[51] = tested on: HL-60(TB) leukemia
[52] = tested on: SK-MEL-5 melanoma
[53] = tested on: K-562 leukemia
[54] = tested on: KM12 colon
[55] = tested on: SK-MEL-28 melanoma
[56] = tested on: SN12C renal
[57] = tested on: TK-10 renal

## O=P1(Oc2ccccc2)NNP2(=NP(Cl)(Cl)=NP(Cl)(Cl)=N2)NN1 (centres undefined)
[1]
  GI50: > 100 µM
  TGI: > 100 µM
[2]
  GI50: > 100 µM
  TGI: > 100 µM
[3]
  GI50: > 100 µM
  TGI: > 100 µM
[4]
  GI50: > 100 µM
  TGI: > 100 µM
[5]
  GI50: > 100 µM
  TGI: > 100 µM
[6]
  GI50: > 100 µM
  TGI: > 100 µM
[7]
  GI50: > 100 µM
  TGI: > 100 µM
[8]
  GI50: > 100 µM
  TGI: > 100 µM
[9]
  GI50: > 100 µM
  TGI: > 100 µM
[10]
  GI50: > 100 µM
  TGI: > 100 µM
[11]
  GI50: > 100 µM
  TGI: > 100 µM
[12]
  GI50: > 100 µM
  TGI: > 100 µM
[13]
  GI50: > 100 µM
  TGI: > 100 µM
[14]
  GI50: > 100 µM
  TGI: > 100 µM
[15]
  GI50: > 100 µM
  TGI: > 100 µM
[16]
  GI50: > 100 µM
  TGI: > 100 µM
[17]
  GI50: > 100 µM
  TGI: > 100 µM
[18]
  GI50: > 100 µM
  TGI: > 100 µM
[19]
  GI50: > 100 µM
  TGI: > 100 µM
[20]
  GI50: > 100 µM
  TGI: > 100 µM
[21]
  GI50: > 100 µM
  TGI: > 100 µM
[22]
  GI50: > 100 µM
  TGI: > 100 µM
[23]
  GI50: > 100 µM
  TGI: > 100 µM
[24]
  GI50: > 100 µM
  TGI: > 100 µM
[25]
  GI50: > 100 µM
  TGI: > 100 µM
[26]
  GI50: > 100 µM
  TGI: > 100 µM
[27]
  GI50: > 100 µM
  TGI: > 100 µM
[28]
  GI50: > 100 µM
  TGI: > 100 µM
[29]
  GI50: > 100 µM
  TGI: > 100 µM
[30]
  GI50: > 100 µM
  TGI: > 100 µM
[31]
  GI50: > 100 µM
  TGI: > 100 µM
[32]
  GI50: > 100 µM
  TGI: > 100 µM
[33]
  GI50: > 100 µM
  TGI: > 100 µM
[34]
  GI50: > 100 µM
  TGI: > 100 µM
[35]
  GI50: > 100 µM
  TGI: > 100 µM
[36]
  GI50: > 100 µM
  TGI: > 100 µM
[37]
  GI50: > 100 µM
  TGI: > 100 µM
[38]
  GI50: > 100 µM
  TGI: > 100 µM
[39]
  GI50: > 100 µM
  TGI: > 100 µM
[40]
  GI50: > 100 µM
  TGI: > 100 µM
[41]
  GI50: > 100 µM
  TGI: > 100 µM
[42]
  GI50: > 100 µM
  TGI: > 100 µM
[43]
  GI50: > 100 µM
  TGI: > 100 µM
[44]
  GI50: > 100 µM
  TGI: > 100 µM
[45]
  GI50: > 100 µM
  TGI: > 100 µM
[46]
  GI50: > 100 µM
  TGI: > 100 µM
[47]
  GI50: > 100 µM
  TGI: > 100 µM
[48]
  GI50: > 100 µM
  TGI: > 100 µM
[49]
  GI50: > 100 µM
  TGI: > 100 µM
[50]
  GI50: > 100 µM
  TGI: > 100 µM
[51]
  GI50: > 100 µM
  TGI: > 100 µM
[52]
  GI50: > 100 µM
  TGI: > 100 µM
[53]
  GI50: > 100 µM
  TGI: > 100 µM
[54]
  GI50: > 100 µM
  TGI: > 100 µM
[55]
  GI50: > 100 µM
  TGI: > 100 µM
[56]
  GI50: > 100 µM
  TGI: > 100 µM
[57]
  GI50: > 100 µM
  TGI: > 100 µM

Source: PubChem BioAssay (NCI)
